# Numbers after ± are expanded uncertainties.
# Test: activity coefficient (dimensionless); of the first substance listed, at infinite dilution; xn = mol fraction of the nth substance listed
# Settings: 100 kPa, Liquid, Chromatography, x1 = 0
smiles,measurement,setting,value
CCCCOCCCC [dibutyl ether] + CCCC[N+]1(C)CCCC1.N#CN=C=[N-],activity coefficient,313.15 K,40.2 ± 4.2
same,activity coefficient,323.15 K,38.8 ± 4.1
same,activity coefficient,343.15 K,36.2 ± 3.8
same,activity coefficient,363.15 K,33.9 ± 3.6
same,activity coefficient,373.15 K,32.9 ± 3.5

# — the NIST ThermoML archive (doi:10.1016/j.fluid.2018.06.013)
